# Earlier results in patent US11622965B2, “Methods for treating lymphoid malignancies” (ZHEJIANG DTRM BIOPHARMA CO. LTD., priority 2017, dated 2023).
# Chains of the proteins cited; added tags and fusions are not shown. Lines headed by an entry give the natural chain unless they say otherwise; changes in a name come on top.
# UniProt Q06187: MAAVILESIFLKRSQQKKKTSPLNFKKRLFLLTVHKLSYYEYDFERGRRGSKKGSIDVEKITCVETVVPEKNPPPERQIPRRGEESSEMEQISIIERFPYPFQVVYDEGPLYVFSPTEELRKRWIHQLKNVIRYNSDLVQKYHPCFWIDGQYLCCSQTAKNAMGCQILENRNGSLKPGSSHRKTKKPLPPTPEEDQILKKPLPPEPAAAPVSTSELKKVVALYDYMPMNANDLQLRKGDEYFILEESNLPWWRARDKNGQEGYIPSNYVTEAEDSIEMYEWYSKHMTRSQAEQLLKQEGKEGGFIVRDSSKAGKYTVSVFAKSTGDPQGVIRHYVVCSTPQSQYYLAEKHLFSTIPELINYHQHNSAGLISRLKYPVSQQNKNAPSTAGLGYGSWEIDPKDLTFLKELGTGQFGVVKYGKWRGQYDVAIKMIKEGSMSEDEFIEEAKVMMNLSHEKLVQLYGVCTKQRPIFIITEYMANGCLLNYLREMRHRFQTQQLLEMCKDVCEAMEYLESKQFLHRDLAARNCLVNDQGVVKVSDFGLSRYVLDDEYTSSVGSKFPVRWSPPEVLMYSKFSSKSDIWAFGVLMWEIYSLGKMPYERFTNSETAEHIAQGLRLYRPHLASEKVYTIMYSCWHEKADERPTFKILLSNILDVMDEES
# Molecular target: BTK (Homo sapiens, UniProt Q06187)
# Details: cited from earlier work
smiles,measurement,value
"C=CC(=O)N1CC[C@@H](n2nc(-c3ccc(Oc4c(F)c(F)cc(F)c4F)cc3F)c3c(N)ncnc32)C1 [Compound A, 1-((R)-3-(4-amino-3-(2-fluoro-4-(2,3,5,6-tetrafluorophenoxy)phenyl)-1H-pyrazolo[3,4-d]pyrimidin-1-yl)pyrrolidin-1-yl)prop-2-en-1-one]",IC50,0.7 nM
